How the values were obtained:
[1] = system: Tie2+ CD11b+ monocytes; experiment: Tie2+ monocyte recruitment in tumor (confocal immunofluorescence); assay type: in vivo, mouse; conditions: MC38 tumor mice, PEP1 50 μg/kg once per 2 days
Description: (§1) 7 week-old BALB/c athymic mice (Nu/Nu) (10 mice per group; n=20, female, Orient Bio Co. Gyunggido, Korea) were divided into two groups randomly after the subcutaneous injection of murine colon carcinoma MC38 (5×10^5 cells/ml in 200 μl PBS per site). PEP1 (50 μg/kg in 100 μl 0.9% NaCl solution) or PBS were injected into the mice once per 2 days. When the size of tumor reaches 10 mm, the PEP1 and PBS were injected to the inside of tumor. The size of tumor was measured in once per 2 days, and the volume of tumor was calculated following equation; volume (mm3)=((width2×length)/2). All experiments were approved by the Institute for Experimental Animals (College of Medicine, Seoul National University at Seoul, Korea).
The sliced tumor section was fixed in 4% paraformaldehyde in room temperature during 15 minutes. It was rinsed by PBS 2 times, incubated in PBS with 0.25% Triton X-100 during 10 minutes, and rinsed by PBS 3 times again. After blocking the tissue in 1% BSA-PBST during 30 minutes, it was incubated with the mixture of the mouse anti-Tie2 (557039, BD Pharmigen) and the anti-CD11b (rat anti-CD11b antibodies, ab8878, abcam) antibodies in the 4° C. humidified chamber. […] For visualizing the cell nucleus, it was incubated with DAPI (Sigma Aldrich) during 1 minute and analyzed by the confocal microscope.

[2] = system: HeLa cells; experiment: Cancer cell growth in normoxia and hypoxia (trypan blue exclusion count); assay type: cell-based, human; conditions: PEP1 20 μM, up to 6 days
Description: (§2) For verifying the effect of PEP1 to the cancer cell growth in the hypoxia circumstance, MCF7 and HeLa cells were seeded to 96-well plate of the 1×10^4 cells per well and incubated in the 10% FBS added complete media of the 37° C., 5% CO2 circumstance. After treating the serum starvation in 2 hours, it was incubated in the complete media with or without PEP1 (20 μM). As mentioned above, the cells were incubated for 1 day to 6 days in the hypoxia circumstance or the normoxia circumstance. The number of viable cells were measured by the tryphan blue exclusion staining method. All of the calculation experiments were repeated.

[3] = system: MCF7 cells; experiment: as above; assay type: cell-based, human; conditions: PEP1 20 μM, up to 6 days
Description: as §2

[4] = system: HSP90; experiment: HSP90 protein level by immunoblotting, serum-free media, 2 h treatment; assay type: cell-based, human; conditions: for amount of HSP90, comparison with HSP inhibitors: 17-AAG 1 μM, KNK437 1 μM; for HSP90 level: increasing concentration, serum-free
Description: Jurkat and MCF7 cells ([…]) were seeded and incubated for 12 hours. After treating the starvation for 2 hours by adding the OPTI-MEM media, same as the shown figure, the cells were treated by the PEP1 at the different concentrations, by the scrambled peptides, […] (1 μM) or KNK437 (1 μM). After the 2-hour incubation, the cells were collected and lysated by using cell lysis buffer (Thermo Scientific, IL, USA). By using Bradford Protein Assay (Bio-Rad, USA), the protein concentration was quantified, and the samples were treated by SDS-PAGE and immunoblotting with α-HSP70 (sc-32239 and sc-66048, Santa Cruz, Calif., USA), α-HSP90 (ab1429, abcam, USA), α-GRP78 (sc-13968), α-HIF-1a (sc-10790) or α-GAPDH (sc-25778) antibodies. The immune reactive band was visualized by the intensive chemiluminescence kit (iNtRoN Biotechnology, INC, Korea), and analyzed by ImageQuant™ LAS-4000 (GE Healthcare Life Science, NJ, US).

[5] = system: HSP70; experiment: HSP70 in tumor lysates (immunoblotting); assay type: in vivo, mouse; conditions: all three PEP1 treated tumor samples
Description: as §1
(§3) Similar to the PCNA staining method, by using immunohistochemical staining, HSP70 and HSP90 proteins expression in tumor were evaluated. The antibodies to the heat shock proteins (HSP70; sc-7298, HSP90; ab1429) was used as the first antibodies. HSP70 and HSP90 proteins expression by tumors was evaluated by immunoblotting using tumor lysate. After freezing by liquid oxygen, the tumor was crashed by the mortar, and homogenized by extraction buffer (20 mM HEPES, pH7.5, 100 mM NaCl, 0.05% Triton X-100, 1 mM DTT, 0.5 mM sodium orthovanadate, 1 mM EDTA, 0.5 mM PMSF, 10 μg/ml aprotinin, 5 μg/ml leupeptin, 2 μg/ml pepstatin). […]

[6] = system: Human umbilical vein endothelial cell; experiment: Vascular endothelial cell proliferation stimulated by EGM-2 media; assay type: cell-based; conditions: PEP1 0.05, 0.5, 5 μM, EGM-2 media stimulation
Description: In this example, the Human umbilical vein endothelial cell was incubated in the EGM-2 media and only the 2 to 5 cycles of the vascular endothelial cell was selected for the experiment.
The vascular endothelial cells were plated to a 6-well plate (BD Biosciences, Bedford, Mass., USA) of the 1×10^5 cells/well. The cells were synchronized by the basic EBM-2 media (Lonza) which has no serum and angiogenesis factors, treated by PEP1 at each concentration (0.05, 0.5, 5 μM) and stimulated by the EGM-2 media, in order to observe the cell proliferation inhibition effect.
For detecting the cell proliferation, by using the trypan blue staining solution (Invitrogen, Carlsbad, Calif., USA), the cells were directly counted in the microscope (×100), and the cell viability was analyzed by using viability assay kit (Merck Millipore Inc.) with Muse™ analyzer.

[7] = system: HSP70; experiment: HSP70 in tumor sections (immunohistochemical staining); assay type: in vivo, mouse; conditions: MC38 tumor sections, PEP1 50 μg/kg
Description: as §1, §3

[8] = system: GRP78; experiment: GRP78 in tumor lysates (immunoblotting); assay type: in vivo, mouse; conditions: PEP1 treated sample
Description: as §1, §3

SMILES: CC[C@H](C)[C@H](NC(=O)[C@H](Cc1ccccc1)NC(=O)[C@H](CCCNC(=N)N)NC(=O)[C@H](CC(C)C)NC(=O)[C@H](CCCNC(=N)N)NC(=O)[C@H](CO)NC(=O)[C@@H](NC(=O)[C@H](CC(C)C)NC(=O)[C@H](CC(C)C)NC(=O)[C@H](C)NC(=O)[C@@H]1CCCN1C(=O)[C@H](CCCNC(=N)N)NC(=O)[C@H](C)NC(=O)[C@@H](N)CCC(=O)O)[C@@H](C)O)C(=O)N1CCC[C@H]1C(=O)N[C@@H](CCCCN)C(=O)O [PEP1, EARPALLTSRLRFIPK]
- number of Tie2+ CD11b+ monocytes in tumor vs control mouse tumor [1]: significantly lower
- cell growth inhibition effect ([2]; hypoxia, vs normoxia): significantly increased
- cell growth inhibition ([2]; normoxia): inhibited little
- cell growth inhibition effect ([3]; hypoxia, vs normoxia): significantly increased
- cell growth inhibition ([3]; normoxia): inhibited little
- decrease of HSP90 ([4]; Jurkat cells, 5 μM): more than 50%
- amount of HSP90, comparison with HSP inhibitors ([4]; Jurkat cells, PEP1 5 μM): decreased
- HSP90 level ([4]; Jurkat cells): significantly decreased
- decrease of HSP90 as compared with the control group ([4]; MCF7 cells, 5 μM): more than 20%
- amount of HSP90, comparison with HSP inhibitors ([4]; MCF7 cells, PEP1 20 μM): decrease
- HSP90 level ([4]; MCF7 cells): significantly decreased
- HSP70 protein level in tumor [5]: decreases
- vascular endothelial cell proliferation [6]: inhibited in a concentration-dependent way
- HSP70 staining pattern vs PBS treated control [7]: weaker staining pattern
- HSP70 positive stained part vs control ([7]; Leica Qwin quantification): very small
- GRP78 protein level in tumor [8]: decreased

Source: patent US10034922B2, “Peptide having angiogenesis inhibitory activity and composition containing same” (GemVax & KAEL Co., Ltd., priority 2013, dated 2018)
